In PubChem BioAssay AID463165 (Johns Hopkins Ion Channel Center, 2010):
Only a part is listed here, and it is no random draw. Some salts and complexes are drawn in separate pieces, as the source files them; their charges need not balance. Active and inactive are the calls of the source.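 The calls were made as follows: active = B-score, a plate-corrected calcium signal, over three deviations above library mean, with baseline fluorescence within five deviations of library mean; inactive = the rest.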

Chains of the proteins cited; added tags and fusions are not shown.
UniProt P49798, whole entry: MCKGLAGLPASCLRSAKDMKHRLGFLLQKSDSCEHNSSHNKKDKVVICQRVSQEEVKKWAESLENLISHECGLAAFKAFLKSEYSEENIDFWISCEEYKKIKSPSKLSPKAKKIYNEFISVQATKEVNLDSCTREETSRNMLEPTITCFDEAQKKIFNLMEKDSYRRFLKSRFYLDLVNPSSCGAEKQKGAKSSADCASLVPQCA

target: Regulator of G-protein signaling 4 (Homo sapiens) (UniProt P49798); assay: blockers of RGS4 function in M3R calcium signaling – cell-based, HEK293 M3R inducible RGS4, calcium flux, primary screen (AID 463165); conditions: Fluo-4 calcium flux, at 10 µM, triggered by carbachol at its EC20;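 also: RGS4 expression induced by doxycycline in cells with stable M3 receptor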

SMILES	outcome
Cc1ccc(OP(=O)(Nc2nccs2)Oc2ccc(C)cc2)cc1	inactive
COc1ccc(OP(C)(=O)Nc2ccccn2)cc1 (stereo not given)	inactive
COc1ccccc1OP(=O)(Nc1ccc(C)cn1)Oc1ccccc1OC	inactive
CN(C)CCOC(=O)C(O)(c1ccccc1)C1CCCC1 (stereo not given)	inactive
Clc1ccc(Cl)c(NC2=NCC(CBr)S2)c1 (stereo not given)	inactive
CN1CCCC(OC(=O)C(c2ccccc2)c2ccccc2)C1 (stereo not given)	inactive
NC(=O)c1cc([N+](=O)[O-])cc([N+](=O)[O-])c1N	inactive
Cc1ccc(N/C(=N/P(=O)(N2CCOCC2)N2CCOCC2)N2CCOCC2)cc1	inactive
COc1ccccc1OP(C)(=O)Nc1ccc(Br)cc1 (stereo not given)	inactive
COc1ccccc1OP(C)(=O)Nc1ccc(C)cc1C (stereo not given)	inactive
CP(=O)(Nc1ccccn1)Oc1ccccc1 (stereo not given)	inactive
CCc1ccc(OP(C)(=O)O)cc1	inactive
O=[N+]([O-])c1cc([N+](=O)[O-])c(Nc2ccccn2)c([N+](=O)[O-])c1	inactive
CC(C)CC(=O)NC(Sc1ccc(Cl)cc1)C(Cl)(Cl)Cl (stereo not given)	inactive
Nc1cc(N)c2nonc2c1[N+](=O)[O-]	inactive
Cc1c(NP(C)(=O)Oc2ccc(C(C)C)cc2)c(=O)n(-c2ccccc2)n1C (stereo not given)	inactive
Cc1c2non([O-])c-2c(C)[n+](=O)[n+]1[O-]	inactive
O=C(NC(Sc1ccncn1)C(Cl)(Cl)Cl)c1ccccc1 (stereo not given)	inactive
Oc1ccccc1CNc1ccccn1	inactive
CN(C(=O)Cc1ccc(Cl)c(Cl)c1)[C@H]1CCCC[C@@H]1N1CCCC1	inactive
Cc1ccc(NP(=O)(Oc2ccccc2F)Oc2ccccc2F)nc1	inactive
COc1ccccc1OP(C)(=O)Nc1ccc(C)c(C)c1 (stereo not given)	inactive
CCOP(=O)(Nc1ccccc1)OCC	inactive

SMILES	outcome
Cc1cc(SC(NC(=O)c2ccc(F)cc2)C(Cl)(Cl)Cl)ncn1 (stereo not given)	inactive
COc1ccc(OP(C)(=O)Nc2ccccc2Br)cc1 (stereo not given)	inactive
O=C(O)c1ccccc1[As](=O)(O)O	inactive
CC(=O)Nc1ccc([As](=O)(O)O)cc1	inactive
Cc1cc(C)cc(OP(C)(=O)Nc2cccc(C(F)(F)F)c2)c1 (stereo not given)	inactive
O=P(Nc1nc2ccc(Cl)cc2s1)(c1ccccc1)c1ccccc1	inactive
CCN(N=Nc1nonc1N)c1nonc1N	inactive
CP(=O)(OCCOc1ccccc1)OCCOc1ccccc1	inactive
CP(=O)(Nc1ccc(Cl)cc1Cl)Oc1ccccc1 (stereo not given)	inactive
Nc1cccc2ccc([As](=O)(O)O)cc12	inactive
Cc1nc2ccc3ccccc3c2o1.O=[N+]([O-])c1cc([N+](=O)[O-])c(O)c([N+](=O)[O-])c1	inactive
O=[N+]([O-])c1cc([N+](=O)[O-])c(CCN2CCOCC2)c([N+](=O)[O-])c1	inactive
O=C(Nc1cc([As](=O)(O)O)ccc1O)c1ccccc1	inactive
CCOC(=O)c1ccc(NP(C)(=O)Oc2ccc(Cl)cc2)cc1 (stereo not given)	inactive
CP(=O)(OC12CC3CC(CC(C3)C1)C2)OC12CC3CC(CC(C3)C1)C2	inactive
Nc1ccc2c(ccc3cccnc32)n1.O=[N+]([O-])c1cc([N+](=O)[O-])c(O)c([N+](=O)[O-])c1	inactive
O=[N+]([O-])c1cccc(NC2=NCC(CBr)S2)c1 (stereo not given)	inactive
O=C(O)CNc1ccc([As](=O)(O)O)cc1	inactive
CC(C)(C)C(=O)NC(Sc1ccncn1)C(Cl)(Cl)Cl (stereo not given)	inactive
O=[N+]([O-])c1ncn(CCn2ncnc2[N+](=O)[O-])n1	inactive
O=C(OCCCN1CCCC1)C(O)(c1ccccc1)C1CCCCC1 (stereo not given)	inactive
COc1ccccc1OP(C)(=O)Nc1c(C)n(C)n(-c2ccccc2)c1=O (stereo not given)	inactive
CC(=O)N1C2C3N(C(C)=O)C1C1N(C(C)=O)C(C(N1C(C)=O)N3C(C)=O)N2C(C)=O	inactive

SMILES	outcome
O=[N+]([O-])c1cccc2n[nH]nc12	inactive
O=[N+]([O-])c1cc([N+](=O)[O-])c(CCNc2ccccc2)c([N+](=O)[O-])c1	inactive
CCc1ccc(OP(C)(=O)Nc2cccnc2)cc1 (stereo not given)	inactive
Cc1ccc(NP(=O)(Oc2ccccc2)Oc2ccccc2)nc1	inactive
CP(=O)(Oc1ccccc1)N1CCOC1=O (stereo not given)	inactive
COc1ccc(C2=NCC(CBr)S2)cc1 (stereo not given)	inactive
COc1ccc(OP(C)(=O)Nc2ccc(Br)cc2)cc1 (stereo not given)	inactive
CCN(CC)CC(O)COC(=O)C(O)(c1ccccc1)C1CCCCC1 (stereo not given)	inactive
CN(C)C(=O)OCCc1n(C)cc[n+]1C	inactive
CC(C)=N/N=C(\N)N[N+](=O)[O-]	inactive
CN(C)C(=O)c1c([N+](=O)[O-])cc([N+](=O)[O-])cc1[N+](=O)[O-]	inactive
CC1CCN(C(=O)Oc2c(Cl)cc(Cl)c3cccnc23)CC1	inactive
C[N+]1=C2C=CC=CC=C2SC12C([N+](=O)[O-])=CC([N+](=O)[O-])=C[C-]2[N+](=O)[O-] (stereo not given)	inactive
Nc1ccc([As](=O)(O)c2ccc(N)cc2)cc1	inactive
CC(C)(C)c1ccc(OP(C)(=O)O)cc1	inactive
COc1ccccc1OP(C)(=O)Nc1ccccc1Br (stereo not given)	inactive
CP(=O)(Nc1ccc(Cl)cc1)Oc1ccc(F)cc1 (stereo not given)	inactive
CCN(/C(=N/P(=O)(N1CCOCC1)N1CCOCC1)N1CCOCC1)c1ccc(OC)cc1	inactive
CCOP(C)(=S)SCC(=O)NC(C)(CC)C(=O)O (stereo not given)	inactive
c1nnnn1CCn1cnnn1	inactive
CP(=O)(Nc1ccc(SC(F)(F)F)cc1)Oc1ccc(F)cc1 (stereo not given)	inactive
O=P(Nc1nccs1)(c1ccccc1)c1ccccc1	inactive
CC(C)C(=O)NC(Sc1ccccc1)C(Cl)(Cl)Cl (stereo not given)	inactive

SMILES	outcome
CP(=O)(Nc1ccc2c(c1)OCCO2)Oc1ccccc1 (stereo not given)	inactive
C[C@H]1OP(=O)(Oc2ccccc2)[C@H](O)[C@H](O)[C@H]1N=[N+]=[N-] (stereo not given in full)	inactive
O=P(Nc1nc2ccccc2s1)(c1ccccc1)c1ccccc1	inactive
CN(C)CCOC(=O)C(O)(c1ccccc1)C1CCCCC1 (stereo not given)	inactive
COc1ccc(NP(C)(=O)Oc2ccccc2OC)cc1 (stereo not given)	inactive
COc1ccc(OP(C)(=O)Nc2cccc(Br)c2)cc1 (stereo not given)	inactive
CN(C)C1(CNC(=O)c2ccc(Cl)c(S(N)(=O)=O)c2)CCCCC1	inactive
O=P(Nc1ccccn1)(c1ccc(Br)cc1)c1ccc(Br)cc1	inactive
Nc1ccc([As](=O)(O)c2ccc([N+](=O)[O-])cc2)cc1	inactive
C(Cc1nn[nH]n1)Cc1nn[nH]n1	inactive
O=C(OC1CN2CCC1CC2)c1cccc(Cl)c1 (stereo not given)	inactive
O=[N+]([O-])c1ncn(CCn2cnc([N+](=O)[O-])n2)n1	inactive
O=[N+]([O-])c1ccc(OP2(=O)COCCO2)cc1 (stereo not given)	inactive
CC(=O)NC(SC(=S)N(C)C)C(Cl)(Cl)Cl (stereo not given)	inactive
O=[N+]([O-])c1ccc(O)c(/C=N/Nc2ccc([N+](=O)[O-])cc2[N+](=O)[O-])c1	inactive
O=[N+]([O-])c1cc([N+](=O)[O-])c(NCC2CCS(=O)(=O)C2)c([N+](=O)[O-])c1 (stereo not given)	inactive
Cc1cc(-c2cccc3ccccc23)c(C)cn1.O=[N+]([O-])c1cc([N+](=O)[O-])c(O)c([N+](=O)[O-])c1	inactive
O=[As](O)(c1ccccc1)c1ccc(O)cc1	inactive
CCOC(=O)c1ccc(NP(C)(=O)Oc2ccc(F)cc2)cc1 (stereo not given)	inactive
COc1ccc(OP(C)(=O)Nc2ccc(SC(F)(F)F)cc2)cc1 (stereo not given)	inactive
O=C(NC1CCS(=O)(=O)C1)NP(=S)(Oc1ccccc1)Oc1ccccc1 (stereo not given)	inactive
CCNC(=S)/N=C(\N)N[N+](=O)[O-]	inactive
CCOC(=O)NC(Sc1ccccc1)C(Cl)(Cl)Cl (stereo not given)	inactive

SMILES	outcome
Cc1ccc(NP(=O)(Oc2cccc(C)c2)Oc2cccc(C)c2)nc1	inactive
c1ccc(-c2nn[nH]n2)c(-c2nn[nH]n2)c1	inactive
CP(=O)(Nc1ccccc1)Oc1ccc(F)cc1 (stereo not given)	inactive
CN(C)C(=O)Oc1noc2ccccc12	inactive
O=[N+]([O-])c1cc([N+](=O)[O-])c(OC2CCCCC2O)c([N+](=O)[O-])c1 (stereo not given)	inactive
CCCCCOc1ccc(NP(C)(=O)Oc2ccc(Cl)cc2Cl)cc1 (stereo not given)	inactive
Cc1ccccc1OP(=O)(Nc1ccccn1)Oc1ccccc1C	inactive
Cc1ccc(OP(=O)(Nc2ccccn2)Oc2ccc(C)cc2)cc1	inactive
CC(=O)NC(SC(=S)N(CC(C)C)CC(C)C)C(Cl)(Cl)Cl (stereo not given)	inactive
COC(=O)c1cc2c(s1)N=C(c1ccccc1)N(C)P2(=O)N1CCOCC1 (stereo not given)	inactive
CCC(=O)N1C2C3N(C(=O)CC)C1C1N(C(=O)CC)C(C(N1C(=O)CC)N3C(=O)CC)N2C(=O)CC	inactive
CCN(CC)CCCOC(=O)C(O)(c1ccccc1)C1CCCCC1 (stereo not given)	inactive
O=C(OC1CN2CCC1CC2)c1ccccc1 (stereo not given)	inactive
CP(=O)(Nc1ccccc1F)Oc1ccccc1 (stereo not given)	inactive
CC(C)c1ccc(OP(C)(=O)Nc2ccc(SC(F)(F)F)cc2)cc1 (stereo not given)	inactive
CC(C)(C)C(=O)NC(Sc1ccccc1)C(Cl)(Cl)Cl (stereo not given)	inactive
CCOc1ccc(C2=NCC(CBr)S2)cc1 (stereo not given)	inactive
O=P1(Nc2nc3ccc(Cl)cc3s2)COc2ccccc2O1 (stereo not given)	inactive
CC(=O)Nc1ccc(Oc2c([N+](=O)[O-])cc([N+](=O)[O-])cc2[N+](=O)[O-])cc1	inactive
COc1ccc2c(c1O)-c1c(O)c(OC)cc3c1[C@H](C2)[N+](C)(C)CC3.O=[N+]([O-])c1cc([N+](=O)[O-])c([O-])c([N+](=O)[O-])c1[O-]	inactive
CC(=O)Nc1ccc([As](=O)(O)O)c(O)c1	inactive
O=C(OC1CN2CCC1CC2)c1ccc([N+](=O)[O-])cc1 (stereo not given)	inactive
CC(=O)c1ccc(N2CC2c2ccncc2)cc1 (stereo not given)	inactive
